Source: paper PMC7608814 (Science Advances, 2020)

Biological target: recombinant α-tubulin (TUBA1A) protein (human, UniProt Q71U36)
Assay: pull-down

binding result: binds
B1: GST fusion protein containing wild-type human SMYD2 (natural protein)
chain: MRAEGLGGLERFCSPGKGRGLRALQPFQVGDLLFSCPAYAYVLTVNERGNHCEYCFTRKEGLSKCGRCKQAFYCNVECQKEDWPMHKLECSPMVVFGENWNPSETVRLTARILAKQKIHPERTPSEKLLAVKEFESHLDKLDNEKKDLIQSDIAALHHFYSKHLGFPDNDSLVVLFAQVNCNGFTIEDEELSHLGSAIFPDVALMNHSCCPNVIVTYKGTLAEVRAVQEIKPGEEVFTSYIDLLYPTEDRNDRLRDSYFFTCECQECTTKDKDKAKVEIRKLSDPPKAEAIRDMVRYARNVIEEFRRAKHYKSPSELLEICELSQEKMSSVFEDSNVYMLHMMYQAMGVCLYMQDWEGALQYGQKIIKPYSKHYPLYSLNVASMWLKLGRLYMGLEHKAAGEKALKKAIAIMEVAHGKDHPYISEIKQEIESH
